Several values for one entry are separate records, joined by “and”; a condition that tells them apart may be missing. Equal entries are not always repeated. Where two headings read alike, the source gives them in different places.

In experiment [1] the test system is Vγ2Vδ2 T cell clone. Format: cell-based, human. Particulars: fosmidomycin added to culture (dxr inhibitor).
Experiment [2] has as its system Vγ2Vδ2 T cell clone. In words: cells. The note with it: Homo sapiens.
In experiment [3] the test system is Vγ2Vδ2 T cell clone. Particulars: cited from earlier work.
Experiment [4] relates to Vγ2Vδ2 T cell clone.
Experiment [5] deals with Vγ2Vδ2 T cells. As to the kind of experiment: Expansion of Vγ2Vδ2 T cells in PBMC by nonpeptide antigens. Particulars: 0.316 μM HMBPP; day 7; normal donors.

On to `O=CN(O)CCCP(=O)(O)O` [fosmidomycin], for which, in experiment [1], the “effect on elevated bioactivity of LytB^G120D mutant bacteria” value was “reduced to wild-type levels”.
With `C=C(C)CCO[P@@](=O)(O)OP(=O)(O)O` [IPP, isopentenyl pyrophosphate], the EC50 was 1000 nM in experiment [2] (48 h, read-out: half-maximal proliferation) and 3000 nM in experiment [2] (read-out: concentration giving half-maximal antigen-induced proliferation (one unit of bioactivity)).
For `CC(C=O)CCOP(=O)(O)OP(=O)(O)O` (stereo not drawn) [3-FBPP, 3-formyl-1-butyl pyrophosphate], the “biological activity for Vγ2Vδ2 T cells” value in experiment [3] was “only low to moderate activity”. Further, the EC50 in experiment [3] (high stimulatory activity previously reported, read-out: stimulatory activity EC50% previously reported) is 5 to 50 nM; in experiment [3] (synthetic 3-FBPP (ref 35), read-out: stimulatory activity EC50%), roughly 3000 nM.
Turning to `C/C(=C\COP(=O)(O)OP(=O)(O)O)CO` [HMBPP, (E)-4-hydroxy-3-methyl-but-2-enyl pyrophosphate], the “fold more antigenic than bromohydrin pyrophosphate” value in experiment [4] (Vγ2Vδ2 T cell clones) is recorded as 100-300 fold. The “fold more potent/antigenic than IPP” value in experiment [4] (molar basis, Vγ2Vδ2 T cell clones) is recorded as ~30,000 fold. Besides, the EC50 in experiment [4] (read-out: concentration giving half-maximal antigen-induced proliferation (one unit of bioactivity), Vγ2Vδ2 T cell clone, usually DG.SF68 or CP.1.15) was 0.0316 nM; in experiment [4] (read-out: concentration stimulating ½ max proliferation, synthetic HMBPP, Vγ2Vδ2 T cells in vitro) it was 0.0316 nM and ~0.03 nM; in experiment [4] (read-out: half-maximal proliferation, AC.2 and DG.SF68 clones, 48 h, mitomycin C-treated Va-2 cells), 0.036 nM. In addition, the “expansion of Vγ2Vδ2 T cells in PBMC” value in experiment [5] is recorded as “stimulated the expansion of Vγ2Vδ2 T cells from normal donors”.
